# Reported water solubility values for industrial, environmental and drug-like chemicals

Data: OPERA 2.9 data sets, kmansouri/OPERA on GitHub.

Water solubility is log10 of mol/L, nominally at 25 °C; higher is more soluble.
Cells with "n/a" have no entry in this list.

water solubility (log10 mol/L) | SMILES | name
-1.56 | NS(=O)(=O)c1ccccc1 | Benzenesulfonamide
-3.069 | CC1(C)CC(CN)CC(C)(C)N1O.N.[Cl-].[Cl-].[Pt+2] | n/a
0.474 | Cc1ncc(CO)c(CN)c1O.Cl.Cl | Pyridoxamine dihydrochloride
-3.749 | CCOC(=O)CN[C@@H](C(=O)N1CC[C@H]1C(=O)NCc1ccc(/C(N)=N/O)cc1)C1CCCCC1 | Ximelagatran
-0.779 | Nc1c(/N=N/c2ccc(-c3ccc(/N=N/c4cc(S(=O)(=O)[O-])c5ccccc5c4N)cc3)cc2)cc(S(=O)(=O)[O-])c2ccccc12.[Na+].[Na+] | C.I. Direct Red 28
-3.68 | Cc1ccc2nc(-c3ccc(N)cc3)sc2c1 | Dehydrothio-4-toluidine
-1.822 | CCCC(=O)OCC(O)COC(=O)CCC | 1,3-Dibutyrin
-2.3 | COCCc1ccccc1 | (2-Methoxyethyl)benzene
-3.424 | CN(Cc1cnc2nc(N)nc(N)c2n1)c1ccc(C(=O)N[C@@H](CCC(=O)O)C(=O)O)cc1 | Methotrexate
-2.899 | CC(=O)Nc1ccc(Br)cc1 | Acetamide, N-(4-bromophenyl)-
-4.685 | CCC(=O)c1ccc2c(c1)N(CC(C)N(C)C)c1ccccc1S2 (centres undefined) | Propiomazine
-1.604 | CN(CCO)C(=O)COC(=O)c1ccccc1O | BENZOIC ACID, 2-HYDROXY-, 2-[(2-HYDROXYETHYL)MET
-4.901 | CC(=O)O[C@H]1C[C@@]2(C)[C@@H](C[C@@H](O)[C@H]3[C@@]4(C)CC[C@@H](O)[C@@H](C)[C@@H]4CC[C@@]32C)/C1=C(\CCC=C(C)C)C(=O)O | Fusidic acid
-3.859 | CC(C)C[C@H](NC(=O)[C@H](Cc1ccccc1)NC(=O)c1cnccn1)B(O)O | Bortezomib
-4.485 | C=C1/C(=C\C=C2/CCC[C@]3(C)[C@@H]([C@H](C)/C=C/[C@@H](O)C4CC4)CC[C@@H]23)C[C@@H](O)C[C@@H]1O | Calcipotriene
-2.744 | COC(=O)C=Cc1ccccc1 | Methyl cinnamate
-7.94 | Clc1c(Cl)c(Cl)c(Oc2ccccc2)c(Cl)c1Cl | 2,3,4,5,6-pentachlorodiphenyl ether
-5.568 | CCCCCCCCCCCCCCCC(=O)NCC(=O)O | N-Palmitoylglycine
-2.143 | O=S1CS(=O)CS(=O)C1 (centres undefined) | 1,3,5-Trithiane 1,3,5-trioxide
-3.939 | O=C(O)CCCCCCCC(C(=O)O)(c1ccccc1)c1ccccc1 | 2,2-Diphenyl-decanedioic acid
0.254 | O=C[C@H](O)[C@@H](O)[C@H](O[C@H]1O[C@H](CO)[C@@H](O)[C@H](O)[C@H]1O)[C@H](O)CO | Maltose
-8.465 | CCCCCCCC/C=C\CCCCCCCCCCCCC | (Z)-9-Tricosene
-2.393 | Oc1nc2ccccc2[nH]1 | 2H-Benzimidazol-2-one, 1,3-dihydro-
-6.37 | CCCCCCCCCCCCCCCCCC(=O)OCC(COC(=O)CCCCCCCCCCCCCCCCC)(COC(=O)CCCCCCCCCCCCCCCCC)COC(=O)CCCCCCCCCCCCCCCCC | Pentaerythrityl tetraoctanoate
-3.189 | FC1=C(OC(F)(F)F)OC(F)(F)O1 | 1,3-Dioxole, 2,2,4-trifluoro-5-(trifluoromethoxy)-
-0.372 | O=C(O)c1c(Cl)ccc(Cl)c1O | Benzoic acid, 3,6-dichloro-2-hydroxy-
-2.58 | CCCSCCC | Propyl sulfide
-0.918 | C=C(CC(=O)O)C(=O)OCC | 3-(Ethoxycarbonyl)but-3-enoic acid
-7.341 | CC(C)(C)c1ccc(OC(=O)c2cc(C(C)(C)C)c(O)c(C(C)(C)C)c2)c(C(C)(C)C)c1 | n/a
-8.436 | CCCCCCCCCCCCc1ccc(N=Nc2ccc(O)c(N=Nc3ccc(CCCCCCCCCCCC)cc3)c2O)cc1 | 2,4-Bis[(4-dodecylphenyl)azo]resorcinol
-1.276 | NS(=O)(=O)c1cc2c(s1)C(O)CCS2(=O)=O (centres undefined) | n/a

2 of these entries, quoted again:

SMILES | name | water solubility (log10 mol/L)
CC(=O)O[C@H]1C[C@@]2(C)[C@@H](C[C@@H](O)[C@H]3[C@@]4(C)CC[C@@H](O)[C@@H](C)[C@@H]4CC[C@@]32C)/C1=C(\CCC=C(C)C)C(=O)O | Fusidic acid | -4.901
CCCC(=O)OCC(O)COC(=O)CCC | 1,3-Dibutyrin | -1.822

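The numbers are reported measurements, compiled and curated for the OPERA QSAR suite. One number stands for a compound and property, with no spread given. How each value was measured is not recorded, so precision varies. Where a salt, mixture or single isomer is drawn, the source does not say that exactly this form was tested. Unmarked limits or estimates from the upstream databases cannot be ruled out.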